Each structure is given as a SMILES string.

Chains of the proteins cited; added tags and fusions are not shown.
UniProt P22460, whole entry: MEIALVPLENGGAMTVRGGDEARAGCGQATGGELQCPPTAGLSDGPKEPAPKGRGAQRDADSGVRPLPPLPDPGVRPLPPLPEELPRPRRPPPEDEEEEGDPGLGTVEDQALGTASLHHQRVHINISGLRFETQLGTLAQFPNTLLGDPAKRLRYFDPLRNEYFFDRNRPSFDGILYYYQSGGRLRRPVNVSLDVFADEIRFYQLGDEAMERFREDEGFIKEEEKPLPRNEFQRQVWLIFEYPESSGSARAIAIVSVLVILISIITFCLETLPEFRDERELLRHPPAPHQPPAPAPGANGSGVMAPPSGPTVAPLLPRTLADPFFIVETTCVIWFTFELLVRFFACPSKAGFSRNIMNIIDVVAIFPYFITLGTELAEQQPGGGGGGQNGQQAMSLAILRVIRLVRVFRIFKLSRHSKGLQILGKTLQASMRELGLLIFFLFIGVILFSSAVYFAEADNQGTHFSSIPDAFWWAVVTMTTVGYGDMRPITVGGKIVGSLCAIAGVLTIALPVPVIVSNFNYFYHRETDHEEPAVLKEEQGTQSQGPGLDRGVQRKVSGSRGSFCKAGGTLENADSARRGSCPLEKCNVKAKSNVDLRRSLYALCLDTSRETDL

In the test the target is Potassium voltage-gated channel subfamily A member 5 (Homo sapiens, UniProt P22460). Briefly: Inhibition of human voltage-gated potassium channel subunit Kv1.5 expressed in Xenopus oocytes. Type of test: cell-based, Oocyte. The procedure, abridged: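 Compounds came from a 10 mM DMSO stock diluted into ND96. Read-out was percent inhibition of the compound-free control current. For IC50, 3–4 concentrations were each tested at least twice and fitted with a variable-slope Hill equation.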

By IC50 is commonly meant the midpoint of a concentration-inhibition curve. Low values mean greater potency in that assay, high ones weaker potency in that assay. The compound `COc1ccc(CC(=O)NCc2ccccc2-c2ccccc2C(=O)NCc2ccc(F)cc2F)cc1` gave an IC50 of 1200 nM. In other words, the single-digit micromolar range.
Compound `C[C@H](OC(=O)NCc1ccccc1-c1ccccc1C(=O)NCCc1ccccn1)c1ccccc1` registered an IC50 of 160 nM.

Values taken from ChEMBL document CHEMBL1145963, “Identification, synthesis, and activity of novel blockers of the voltage-gated potassium channel Kv1.5” (J Med Chem, 2003).
